Chains of the proteins cited; added tags and fusions are not shown. Residues count along the entry.
UniProt P19492, 23-888: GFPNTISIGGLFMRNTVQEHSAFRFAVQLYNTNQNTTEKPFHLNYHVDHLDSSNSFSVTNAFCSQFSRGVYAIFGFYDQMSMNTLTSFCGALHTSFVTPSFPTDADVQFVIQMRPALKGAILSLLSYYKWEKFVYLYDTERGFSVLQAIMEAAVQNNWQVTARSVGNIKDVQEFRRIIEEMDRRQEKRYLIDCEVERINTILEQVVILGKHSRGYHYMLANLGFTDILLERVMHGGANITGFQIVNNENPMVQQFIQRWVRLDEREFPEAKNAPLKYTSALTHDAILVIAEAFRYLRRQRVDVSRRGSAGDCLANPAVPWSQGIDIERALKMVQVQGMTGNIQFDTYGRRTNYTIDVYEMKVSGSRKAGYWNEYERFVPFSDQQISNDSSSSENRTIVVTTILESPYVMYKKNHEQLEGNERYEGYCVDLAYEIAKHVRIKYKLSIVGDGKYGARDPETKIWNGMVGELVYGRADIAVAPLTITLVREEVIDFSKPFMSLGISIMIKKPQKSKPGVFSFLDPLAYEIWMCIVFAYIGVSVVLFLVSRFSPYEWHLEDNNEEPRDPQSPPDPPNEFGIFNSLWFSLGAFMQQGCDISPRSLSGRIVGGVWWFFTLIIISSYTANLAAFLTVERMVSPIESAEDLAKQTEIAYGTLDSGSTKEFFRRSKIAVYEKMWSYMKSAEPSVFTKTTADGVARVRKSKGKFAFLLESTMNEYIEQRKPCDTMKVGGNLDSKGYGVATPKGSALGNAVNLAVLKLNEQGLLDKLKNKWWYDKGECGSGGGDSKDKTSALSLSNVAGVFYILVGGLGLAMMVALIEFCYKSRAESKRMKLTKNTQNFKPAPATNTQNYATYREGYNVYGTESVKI
UniProt P19490, 19-907 S67T/A248R/S789T: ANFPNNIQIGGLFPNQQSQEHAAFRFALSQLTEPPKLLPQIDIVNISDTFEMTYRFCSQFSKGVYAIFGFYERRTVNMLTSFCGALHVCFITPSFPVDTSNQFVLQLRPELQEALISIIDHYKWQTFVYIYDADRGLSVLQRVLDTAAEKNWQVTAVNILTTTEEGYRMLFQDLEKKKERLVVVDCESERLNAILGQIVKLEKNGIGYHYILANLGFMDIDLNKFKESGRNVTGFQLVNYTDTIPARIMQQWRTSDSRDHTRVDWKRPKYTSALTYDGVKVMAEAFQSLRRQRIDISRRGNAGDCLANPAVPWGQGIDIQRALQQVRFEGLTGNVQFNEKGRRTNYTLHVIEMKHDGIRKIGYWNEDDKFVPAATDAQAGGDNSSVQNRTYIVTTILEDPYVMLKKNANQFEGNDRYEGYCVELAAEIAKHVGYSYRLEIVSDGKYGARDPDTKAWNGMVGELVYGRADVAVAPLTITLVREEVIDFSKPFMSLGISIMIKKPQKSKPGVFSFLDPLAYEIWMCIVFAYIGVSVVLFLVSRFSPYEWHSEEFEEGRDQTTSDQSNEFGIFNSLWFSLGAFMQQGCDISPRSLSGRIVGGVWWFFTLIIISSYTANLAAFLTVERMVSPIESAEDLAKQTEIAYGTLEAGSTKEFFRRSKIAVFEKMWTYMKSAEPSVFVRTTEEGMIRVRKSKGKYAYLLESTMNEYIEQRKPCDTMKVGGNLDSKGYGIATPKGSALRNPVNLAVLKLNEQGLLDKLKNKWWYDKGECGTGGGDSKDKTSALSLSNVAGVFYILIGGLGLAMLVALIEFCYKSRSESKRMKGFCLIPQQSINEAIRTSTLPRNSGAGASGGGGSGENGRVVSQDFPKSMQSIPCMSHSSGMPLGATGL

According to patent US5739291A, “Glutamate receptor antibodies” (The Salk Institute For Biological Studies, priority 1995, dated 1998):

Legend:
GluR3 = GluR3 (Rattus norvegicus, UniProt P19492); assay: cell-based; type: cell-based; settings: for response to agonist: GLU 100 μM, NMDA 30 μM plus 10 μM glycine, APB 50 μM, 2 ng RNA, 3 days
GluR1 = GluR1 (Rattus norvegicus, UniProt P19490); assay: Voltage-clamp recording in Xenopus oocytes injected with GluR1 in vitro RNA; settings: for response to agonist: GLU 100 μM, NMDA 30 μM plus 10 μM glycine, APB 50 μM, 2 ng RNA, 3 days
kainate receptor = type: cell-based, rat
Protocol: A directional cDNA library (λZAPII RTB1; complexity: 8×10^5 elements), consisting of 18 independent sublibraries of 44,000 clones each, was constructed from this poly(A)^+ RNA using the bacteriophage expression vector λZAPII. A pool of in vitro transcripts, comprised of transcripts made separately from all 18 amplified sublibraries, was injected into oocytes. […]. No responses to NMDA or quisqualate were detected. […]. Subsequently, pools of 44,000 clones (=the single sublibraries), 4,000, 400 and 40 clones were tested. In each of these tests at least one pool responded to KA.

GluR2 = settings: 100 μM KA
[1] = tested on: GluR1, GluR2, GluR3, GluR4 and GluR5; type: cell-based, rat; settings: summary statement
[2] = QUIS 10 μM, AMPA 50 μM, normalized to 100 mM KA, -70 mV

| Compound | response to the AMPA solution used in the GluR6 experiment (hippocampal mRNA) | response to agonist (GluR3; QUIS 10 μM, AMPA 50 μM, -70 mV) | Emax at 50 µM (GluR3; read-out: response as % of the KA response) [%] | response to the AMPA solution used in the GluR6 experiment (GluR1) | response to agonist (GluR1; QUIS 10 μM, AMPA 50 μM, -70 mV) | Emax at 50 µM (GluR1; read-out: response as % of the maximal KA response) [%] | depolarizations in voltage recordings (kainate receptor; 100 μM kainate, 10 days after injection) | depolarization in response to bath application (GluR2) | Compound Plus Kainate (%): % of the response seen with 30 μM kainate alone (GluR1; test compounds 1 mM plus 30 μM kainate, -70 mV, peak currents, average of 3 oocytes ± SEM) [%] | Compound Alone (%): % of the response evoked by 30 μM kainate immediately before drug application (GluR1; test compounds 1 mM, kainate 30 μM, -70 mV, peak currents, average of 3 oocytes ± SEM) [%] | response as % of the KA response (GluR3; [2]) | responses detected (kainate receptor) | activation of homomeric receptor ion-channel complexes [1] | response as % of the maximal KA response (GluR1; [2]) |
| --- | --- | --- | --- | --- | --- | --- | --- | --- | --- | --- | --- | --- | --- | --- |
| Cc1onc(O)c1CC(N)C(=O)O (stereo not drawn) [AMPA, α-amino-3-hydroxy-5-methyl-isoxazole-4-propionic acid] | did evoke responses | also respond | ~10 | did evoke responses | also respond | 35 to 40 | – | – | – | – | – | – | – | – |
| C=C(C)[C@H]1CN[C@H](C(=O)O)[C@H]1CC(=O)O [kainate, kainic acid] | – | – | – | – | – | – | 1-3 mV | depolarize | 100.0 | 100.0 | – | – | – | – |
| N[C@@H](Cn1oc(=O)[nH]c1=O)C(=O)O [quisqualate, quisqualic acid] | – | also respond | – | – | also respond | – | – | – | – | – | about 10% | No responses | activated by | 35-40% |
